According to patent US20170188618A1, “STABLE EMULSIONS FROM DIPEPTIDE DERIVATIVES” (UNIVERSITY OF STRATHCLYDE, priority 2014, published 2017):

Key:
thermolysin = target: T1, thermolysin (Bacillus thermoproteolyticus, UniProt P00800); experiment: Enzymatic demulsification of emulsions by thermolysin; format: biochemical; conditions: after 10 minutes, at 50% conversion
T1 sequence (P00800 233-548): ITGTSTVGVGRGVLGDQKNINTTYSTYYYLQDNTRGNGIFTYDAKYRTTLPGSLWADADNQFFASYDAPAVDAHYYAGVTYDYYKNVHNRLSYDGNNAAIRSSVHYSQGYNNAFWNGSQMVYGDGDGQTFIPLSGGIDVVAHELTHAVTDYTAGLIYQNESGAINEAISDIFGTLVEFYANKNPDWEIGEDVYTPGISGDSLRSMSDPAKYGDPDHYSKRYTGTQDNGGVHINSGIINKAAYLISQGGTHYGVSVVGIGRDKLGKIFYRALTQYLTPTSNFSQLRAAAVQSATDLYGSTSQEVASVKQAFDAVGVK
Method: Scale bar is 50 μm. (b) Histogram of the size distribution of adding 1 mg·mL^−1 thermolysin phosphate buffer solution into chloroform-in-water emulsion droplets stabilized with 2 mmol·L^−1 Fmoc-YL buffer solution after 0, 20, 40, 60 seconds. (c) Optical photographs of vials in which emulsions formed (left) and demulsified (right) in addition of thermolysin. Emulsions were stabilized with 2 mmol·L^−1 Fmoc-YL buffer solution in absence (left) and presence (right) of 1 mg·mL^−1 thermolysin after 10 min.
Another vital advantage of using peptide self-assembly to stabilize the emulsion systems is the ability to digest the stabilizing film using a suitable enzyme. Proteases, the enzymes that cleave peptide bonds cause disassembly of amphiphiles.

[1] = Partitioning of peptides between water, chloroform and the water/chloroform interface (UV-Vis); format: physicochemical; conditions: water/chloroform biphasic system
Method: Initial interest in studying aromatic peptide amphiphiles at the organic/aqueous interface started from the observation that aromatic peptide Fmoc-YL forms a gel in both phosphate buffer solution (10 mM) and chloroform (25 mM). […] By adding different volumes of chloroform to 10 mM Fmoc-YL buffer solution at 80° C. […] In the images shown, the milky layers are emulsions and the transparent layers above and below are the aqueous and chloroform phase, respectively. UV-Vis was used to determine the amount of Fmoc-YL that remained in water phase and transferred to chloroform. Fluorescein isothiocyanate (FITC) was used to label the aqueous phase in the emulsion layers for imaging by fluorescence microscopy.
(§1) The absorption of Fmoc-YL at the chloroform/water interfaces could be quantified by UV-Vis spectra by measuring the concentration in each phase and with the remainder absorbed at the interface. Based on UV analysis, in a 50:50 water/chloroform system, the amount of Fmoc-YL absorbed at the chloroform/water interface could be calculated as 1.9 mmol·m^−2.
(§2) The structures of Fmoc-YL microcapsules were determined by Hitachi S800 field emission scanning electron microscope (SEM) at an accelerating voltage of 10 keV. The transfer of Fmoc-YL, YA and YS were analyzed by UV-Vis spectroscopy (JAS.C.O V-660 spectrophotometer). The formation of Fmoc-YL gels and labeling of ThT were carried out by Fluorescence spectroscopy (JAS.C.O FP-6500 spectrofluorometer). High resolution mass spectra (HRMS) were recorded on a Thermo Electron Exactive. 400.1 (1H) NMR spectra were recorded on Brucker Avance 400 spectrometer at room temperature using perdeuterated solvents as internal standards. The emulsion droplets were characterized by fluorescence microscopy. The devices were mounted on an inverted microscope (AXIO Observer A1, Zeiss) and images were acquired using a EMCCD LucaR camera (Andor Technologies). Images (using brightfield and fluorescence microscopy) were acquired using Zeiss ×20 dry objective and the appropriate filter set for the fluorophore being imaged. Image was analyzed using ImageJ.

[2] = Emulsion formation by aromatic peptide amphiphiles (fluorescence microscopy, FITC label); format: physicochemical
Method: (§3) (the volume ratio of buffer solution to chloroform is altered from 1:9, 3:7, 5:5, 7:3, to 9:1, total volume was always 1 mL), after hand-shaking for 5 seconds emulsions form in vials. For SEM, IR, stability, average particle size, critical emulsion concentration and demulsification measurements, the volume ratio of buffer solution to chloroform was fixed at 7:3. The concentration of all aromatic peptide amphiphiles studied (Fmoc-YA, Fmoc-YS, Pyr-YL, Fmoc-FF and Fmoc-FFF) was 10 mM, except for in the determination of the critical emulsion concentration (0.1-10 mM) and demulsification measurements (2 mM).

[3] = Stability of chloroform-in-water emulsions (time, heat, salts) versus SDS
Method: The top images show freshly prepared emulsions and the bottom images show emulsions incubated for 2 weeks. […] The top images show freshly prepared emulsions and the bottom images show emulsions heated at 60° C. for 3 hours. […] The top images show freshly prepared emulsions and the bottom images show emulsions incubated for 24 hours.
as §3

[4] = Gel formation in buffer solution and chloroform; format: physicochemical
[5] = Enzymatically triggered emulsions: stability in chloroform/water biphasic system; format: physicochemical; conditions: Fmoc-YL formed by alkaline phosphatase in chloroform/water biphasic system
Method: When chloroform is added in a 1:1 volume ratio to the 5 mM Fmoc-YpL buffer solution and hand-shaken for 5 seconds, an emulsion is formed. Fmoc-YpL follows a surfactant-like behaviour, visible by the formed foam, where the amphiphile absorbs to the oil/water interface. However, the structure of Fmoc-YpL implies an inability to effectively stabilize the interface and demulsification occurs after one hour (FIG. 4a). […] Enzyme-triggered self-assembly allows temporal control over emulsification, achieved by adding alkaline phosphatase to the Fmoc-YpL biphasic system (FIG. 11a).
Fmoc-YpL was prepared in the same way as stated before but in a 5 mM concentration to avoid formation of hydrogels. After 24 hours from the Fmoc-YpL has been prepared in buffer and the alkaline phosphatase added (to assure full dephosphorylation), 500 μL chloroform were added to 500 μL samples and hand-shaken for 5 seconds to make a 50:50 chloroform-in-water emulsion.

[6] = Absorption of Fmoc-YL at the chloroform/water interface (UV-Vis); format: physicochemical; conditions: 50:50 water/chloroform system; based on UV analysis
Method: as §1, §2

With Fmoc-tyrosine-leucine [Fmoc-YL] the “emulsion state after thermolysin” value (thermolysin) was “complete demulsification and phase separation”, the “Remain in water (%)” value [1] was 14.01% and the “Transfer to chloroform (%)” value [1] was 3.45%. For the same substance, the “Transfer to interface (%)” value [1] was 82.53%, the “type of emulsion formed” value ([2]; chloroform / phosphate buffer pH 8, 10 mM peptide) was “chloroform-in-water emulsions form” and the “emulsions with other organic media” value ([2]; hexadecane, mineral oil instead of chloroform) was “can also stabilize both hexadecane-in-water and mineral oil-in-water emulsions”. The “long-term stability of emulsions” value ([3]; 10 mM in buffer, chloroform, manual agitation 5 seconds) was “stable for months”, the “emulsion state after 24 h in salt solution” value ([3]; 100 mM phosphate, chloride and thiocyanate solution, 10 mM) was “not influenced by the salt effect” and the “emulsion state after exposure to 60° C. for 3 h” value ([3]; chloroform-in-water, 10 mM) was “no visible change”. The “emulsion state after two weeks at room temperature” value ([3]; chloroform-in-water, 10 mM) was “still stable”, the “gel formation in phosphate buffer solution” value ([4]; Fmoc-YL 10 mM) was “forms a gel” and the “gel formation in chloroform” value ([4]; Fmoc-YL 25 mM, Fmoc-YA 30 mM) was “forms a gel”. For the same substance, the emulsion stability [5] was “stable for months” and the “amount absorbed at the chloroform/water interface” value [6] was 1.9 mmol·m^−2.
